The text below walks through data of ChEMBL document CHEMBL1159180, “Synthesis of 7-chloro-4-substituted aminoquinolines and their in vitro ability to produce methemoglobin in canine hemolysate” (1997).

What all share (conditions): Canis lupus familiaris
The target in experiment [1] is T1, NADH-cytochrome b5 reductase (Homo sapiens) (UniProt P00387).
T1 sequence (whole entry): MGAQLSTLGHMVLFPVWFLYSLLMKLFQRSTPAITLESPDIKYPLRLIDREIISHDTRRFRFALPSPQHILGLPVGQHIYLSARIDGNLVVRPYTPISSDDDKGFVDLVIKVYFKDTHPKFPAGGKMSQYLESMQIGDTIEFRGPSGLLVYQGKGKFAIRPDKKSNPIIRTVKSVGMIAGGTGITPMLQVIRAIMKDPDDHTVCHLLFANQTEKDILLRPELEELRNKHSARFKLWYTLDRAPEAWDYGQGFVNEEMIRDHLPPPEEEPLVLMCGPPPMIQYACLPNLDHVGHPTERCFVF
The experiment can be described thus: In vitro effect on methemoglobin reductase activity at specified 33 uM concentration; enzyme activity expressed as nmoles of methemoglobin reduced min-1.mg. protein -1.

In experiment [2] the target is T1, NADH-cytochrome b5 reductase (Homo sapiens). Briefly: In vitro effect on methemoglobin reductase activity at specified 166 uM concentration; enzyme activity expressed as nmoles of methemoglobin reduced min-1.mg. protein -1.
Experiment [3] shares this target. Briefly: Percentage inhibition of methemoglobin reductase by the compound at 133 uM concentration.
For experiment [4] the target is unchanged. The experiment can be described thus: In vitro effect on methemoglobin reductase activity at 33 uM concentration; enzyme activity expressed as nmoles of methemoglobin reduced min-1.mg. protein -1.
The target is the same in experiment [5]. The experiment can be described thus: In vitro effect on methemoglobin reductase activity at 166 uM concentration; enzyme activity expressed as nmoles of methemoglobin reduced min-1.mg. protein -1.

`OCCNc1ccnc2cc(Cl)ccc12`: the Methemoglobin in experiment [1] and in experiment [2] was 0.065 in each case.
`O=[N+]([O-])c1cc2c(NCCO)ccnc2cc1Cl`: the Methemoglobin in experiment [1] and in experiment [2] was 0.065 throughout.
With `Clc1ccc2c(NCCN3CCNCC3)ccnc2c1`, the Methemoglobin in experiment [1] and in experiment [2] was 0.065 each time.
Consider `Clc1ccc2c(NCCN3CCN(c4ccccc4)CC3)ccnc2c1`, for which the Methemoglobin in experiment [1] and in experiment [2] was 0.065 each time.
Take `Clc1ccc2c(NCc3ccco3)ccnc2c1`: the Methemoglobin is 0.065 in experiment [1] and 0.057 in experiment [2].
`O=[N+]([O-])c1ccc(NNc2ccnc3cc(Cl)ccc23)cc1` displayed an inhibition in experiment [3] of 50%. The figures for the Methemoglobin in experiment [4] and in experiment [5] were 0.065 and 0.032, respectively.
As for `O=[N+]([O-])c1ccc(OCCNc2ccnc3cc(Cl)ccc23)cc1`, the Methemoglobin in experiment [4] is 0.065; in experiment [5] it was 0.059.
For the compound `O=NO`, the Methemoglobin in experiment [4] and in experiment [5] was 0.065 throughout.
Consider `N#Cc1ccc(OCCNc2ccnc3cc(Cl)ccc23)cc1`, for which the values for the Methemoglobin in experiment [1] and in experiment [2] were 0.065 and 0.005, respectively.
As to `COc1cc(NC(C)CCCN)c2ncccc2c1` (stereo unspecified), the figures for the Methemoglobin in experiment [4] and in experiment [5] were 0.065 and 0.056, respectively.
Consider `Clc1ccc2c(NCCN3CCN(c4ccccn4)CC3)ccnc2c1`, for which the Methemoglobin in experiment [1] and in experiment [2] was 0.065 each time.
For the compound `CN1CCN(CCCN2CCN(c3ccnc4cc(Cl)ccc34)CC2)CC1`, the Methemoglobin in experiment [1] and in experiment [2] was 0.065 throughout.
On to `CCN(CC)CCCC(C)Nc1ccnc2cc(Cl)ccc12` (stereo unspecified), for which the Methemoglobin in experiment [1] and in experiment [2] was 0.065 throughout.
As for `CC(=O)c1ccc(Nc2ccnc3cc(Cl)c([N+](=O)[O-])cc23)c([N+](=O)[O-])c1`, the Methemoglobin in experiment [4] and in experiment [5] was 0.065 each time.
Take `CCN(CC)CCCC(C)NCCCN1CCN(c2ccnc3cc(Cl)ccc23)CC1` (stereo unspecified): the Methemoglobin in experiment [1] and in experiment [2] was 0.065 throughout.
